Data taken from PMC6588435 (Cell chemical biology, 2019).

Sequences of proteins named here, by UniProt entry; tags and fusion partners are left off. A change or cut given only in a name is not applied to a line headed by its entry.
UniProt P9WG57: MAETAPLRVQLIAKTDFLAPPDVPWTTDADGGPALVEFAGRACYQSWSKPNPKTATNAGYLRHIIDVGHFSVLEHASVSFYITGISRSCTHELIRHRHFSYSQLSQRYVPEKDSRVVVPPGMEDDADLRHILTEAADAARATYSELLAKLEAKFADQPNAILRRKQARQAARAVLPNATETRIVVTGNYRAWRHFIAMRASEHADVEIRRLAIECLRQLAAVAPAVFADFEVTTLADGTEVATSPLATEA

Molecular target: Mtb FDTS (Mycobacterium tuberculosis, UniProt P9WG57)
Assay: Mtb FDTS NADPH oxidation assay
Assay type: biochemical
Conditions: 200 µM

SMILES | inhibition of NADPH oxidation activity of Mtb FDTS
Nc1nc(=O)c2nc(CNc3ccc(C(=O)NC(CCC(=O)O)C(=O)O)c(O)c3)cnc2[nH]1 (centres unmarked) [PAS-M, 2-[(4-{[(2-amino-4-oxo-1,4-dihydropteridin-6-yl)methyl]amino}-2-hydroxyphenyl)formamido] pentanedioic acid] | fully inhibiting
Nc1nc2c(c(=O)[nH]1)N1CN(c3ccc(C(=O)N[C@@H](CCC(=O)O)C(=O)O)cc3)CC1CN2 (some centres unmarked) [mTHF, 5,10-Methylenetetrahydrofolate] | 100%
